From PMC2409716 (British Journal of Cancer, 2004)

Test: Noncompartmental plasma pharmacokinetics of irinotecan and SN-38 with/without R115777
Details: over the dose ranges studied (P=0.43)

AUC and peak plasma concentrations versus dose: increased in proportion with dose
Compound: CCc1c2c(nc3ccc(OC(=O)N4CCC(N5CCCCC5)CC4)cc13)-c1cc3c(c(=O)n1C2)COC(=O)[C@]3(O)CC [irinotecan]
